Consider four molecules from US12617773B2, “Azetidin-3-ylmethanol derivatives as CCR6 receptor modulators” (Idorsia Pharmaceuticals Ltd, priority 2020, dated 2026).

Protein sequences, listed by entry. Tags and fused reporters are not part of them.
UniProt P51684, whole entry: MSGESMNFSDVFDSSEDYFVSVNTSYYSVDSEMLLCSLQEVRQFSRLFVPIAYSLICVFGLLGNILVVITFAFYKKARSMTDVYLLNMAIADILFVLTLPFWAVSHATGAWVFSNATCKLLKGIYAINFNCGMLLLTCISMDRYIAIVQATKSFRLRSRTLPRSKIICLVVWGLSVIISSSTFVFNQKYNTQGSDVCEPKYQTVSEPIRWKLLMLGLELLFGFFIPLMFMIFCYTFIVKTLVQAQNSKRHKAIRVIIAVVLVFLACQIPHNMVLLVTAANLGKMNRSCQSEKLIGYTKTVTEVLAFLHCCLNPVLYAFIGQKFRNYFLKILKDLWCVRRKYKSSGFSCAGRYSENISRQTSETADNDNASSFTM

pIC50: −log10 of the molar value.

This assay concerns the target human CCR6 (Homo sapiens, UniProt P51684). Kind of assay: FLIPR assay (inhibition of CCL20-induced calcium signal). Type of assay: cell-based. To be noted: read-out: FLIPR IC50; HEK-293 cells expressing human CCR6; mean values where determined several times.
Take `CC(C)c1ccc([C@](O)(c2cncc(N3CC(c4cnn(C)n4)CC3=O)c2)C2(C)CN(C)C2)cc1` (stereo partly shown): the pIC50 was 6.65.
Turning to `CC(C)c1ccc([C@](O)(c2cncc(C3CCN(c4ccccc4)CC3)c2)C2(C)CN(C)C2)cc1`, the pIC50 is 7.63.
Turning to `CC(C)c1ccc([C@](O)(c2cncc(N3CC(c4ccnc(C(C)C)n4)CC3=O)c2)C2(C)CN(C)C2)cc1` (stereo partly shown), the pIC50 was 7.30.
Regarding `Cc1ccc(S(=O)(=O)N2CCC(c3cncc([C@@](O)(c4ccc(C(C)C)cc4)C4(C)CN(C)C4)c3)CC2)cc1`, the negative logarithm of the IC50 (pIC50) was 7.82.
